This is an account of results in paper PMC5156471, “Complementary pharmacological and toxicological characterization data on the pharmacological profile of N-(2,6-dichlorophenyl)-2-(4-methyl-1-piperidinyl) acetamide” (Data in Brief, 2016).

For data set [1], the system named is bone marrow polychromatic erythrocytes. The data set is classed as in vivo. To be noted: mice, i.p. (LIA, lidocaine 100 mg/kg; cyclophosphamide 40 mg/kg), 24 h, mean±SEM, five animals. As for the experimental part:
This test was carried out following standard protocols, [5]. […]. Animals were sacrificed 24 h later and the bone marrow from both femurs was flushed out using 2 mL of saline and centrifuged for 5 min at 3000 rpm. The supernatant was discarded, and the pellet was re-suspended in 0.3 mL of saline. Of this smears were made on glass slides. The slides were fixed with methanol and stained with 10% Wright–Giemsa stain. Cells were blindly scored using a light microscope at 100 X magnification. For the analysis of micronucleated cells, 1000 polychromatic erythrocytes (PCE) per animal were scored. In order to assess the cytotoxic effects of compounds, the ratio of PCE to normochromatic erythrocytes (NCE) was determined in 1000 erythrocytes, [5]. The results are presented as the mean number of micronucleated polychromatic erythrocytes (MNPCE) or the ratio PCE:NCE in individual mice (two smears per animal)±SEM for five animals per group (Table 3).

For a further data set, the system named is ICR male mice. The data set is described as follows: Acute toxicity in mice by the Lorke method. As to conditions: for Dead mice: i.p., dead/treated, observed 14 days. As for the experimental part: Experiments were performed on ICR male mice by the Lorke method. Doses were selected according this method. In both phases, mice were observed daily for 14 days for mortality, toxic effects and behavioral changes. Restlessness, respiratory distress, seizures, diarrhea, motor activity, posture and reflexes were qualitatively determined. Body weight was also monitored. The internal organs (including the stomach, heart, lung, liver, and kidneys) were removed at the end of experiment and visually examined for lesions.

For `CCN(CC)CC(=O)Nc1c(C)cccc1C` [Lidocaine, reference compound], the “MNPCE per 1000 PCE” value in data set [1] is on record as 4.6±2.1 ^⁎^, ^#. Besides, the “PCE:NCE” value in data set [1] is 19.5±1.4. The Dead mice with ICR male mice (Phase I, 10 mg/kg) was 0/3; with ICR male mice (Phase I, 100 mg/kg), 0/3; in the data set on ICR male mice (Phase I, 1000 mg/kg), 3/3; in the data set on ICR male mice (Phase II, 140 mg/kg), 1/3; with ICR male mice (Phase II, 225 mg/kg), 1/3; with ICR male mice (Phase II, 370 mg/kg), 3/3. The Dead mice with ICR male mice (Phase II, 600 mg/kg) was 3/3. For the same compound, the “Macroscopic damage of internal organs (stomach, heart, lung, liver, kidneys)” value in the data set with ICR male mice (mice, visual examination at the end of experiment (14 days)) was “Neither LIA nor lidocaine produced visible macroscopically damage”.
